From PMC10184130
Where two headings read alike, the source gives them in different places.

How the values were obtained:
[1] = Pharmacokinetics analysis in mice (oral; plasma and brain); format: in vivo; details: plasma
Protocol: Male C57BL/6J mice were purchased from The Jackson Laboratory Japan, Inc. (Kanagawa, Japan). All animals were with free access to food and water prior to the treatment and were healthy throughout the experimental period. The compound was dissolved in 10% DMSO/10% Cremophor EL/20% PEG400/60% 0.1 mol/L citric acid solution and administered orally at doses of 10, 30, or 100 mg/kg. Blood samples were collected into heparinized tubes at the designated time points (0.5, 1, 2, 4, 8, and 24 h postdosing), and brains were also collected at 2 and 24 h postdosing. Plasma was separated from the blood samples by centrifugation. The plasma and brain concentrations were quantified with high-performance liquid chromatography–tandem mass spectrometry. The lower limit of quantitation was 1 ng/mL for plasma and 5 ng/mL for brains.

human C1s = molecular target: T1, human C1s (Homo sapiens, UniProt P09871); experiment: Human C1s enzyme assay; format: biochemical
T1 construct: Recombinant human C1s (358–688 aa) fused with both the N-terminal IgG signal peptide; IgG signal peptide (N); His tag (C); made in house; host or cells: HEK293 cells
T1 sequence (P09871 358-688): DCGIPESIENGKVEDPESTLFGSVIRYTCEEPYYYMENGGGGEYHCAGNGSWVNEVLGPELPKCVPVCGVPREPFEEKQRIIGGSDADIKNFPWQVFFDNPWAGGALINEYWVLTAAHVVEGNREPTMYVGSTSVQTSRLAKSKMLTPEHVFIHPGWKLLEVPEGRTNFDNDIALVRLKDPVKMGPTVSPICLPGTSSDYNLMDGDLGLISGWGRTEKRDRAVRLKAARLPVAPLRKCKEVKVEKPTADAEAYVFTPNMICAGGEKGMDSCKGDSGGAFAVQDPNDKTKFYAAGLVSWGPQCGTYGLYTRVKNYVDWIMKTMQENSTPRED
Protocol: Recombinant human C1s (358–688 aa) fused with both the N-terminal IgG signal peptide and the C-terminal His tag was expressed in HEK293 cells and purified. The assay was performed in a 384-well clear plate in a total volume of 20 μL of an assay buffer 1 [50 mmol/L Tris–HCl (pH 7.5), 150 mmol/L NaCl, 0.01% (w/v) Tween 20, and 0.01% (w/v) BSA]. Compounds were dissolved in DMSO and diluted to various concentrations. After 20 nL of compound solution was added to the plate, 10 μL of substrate solution containing a 250 μmol/L Z-Lys-SBzl peptide (Watanabe Chemical, Hiroshima, Japan) and 250 μmol/L DTNB (5,5′-dithiobis(2-nitrobenzoic acid)) (Sigma, MO, USA) was added to the plate. Then, 8 nmol/L human C1s was added to the plate and incubated at room temperature for 60 min. The absorbance at 405 nm was detected using an EnVision multilabel plate reader. […] The IC50 values were calculated using IDBS XLfit software.

SMILES: Cc1cc([C@H]2CN(c3cc(F)c4c(N)nncc4c3)CCN2c2cccc(F)c2)no1 [Compound (R)-8, 8-Fluoro-6-[(3R)-4-(3-fluorophenyl)-3-(5-methyl-1,2-oxazol-3-yl)piperazin-1-yl]phthalazin-1-amine]
- Tmax ([1]; 10 mg/kg): 1.67 ± 0.58 h
- Tmax ([1]; 30 mg/kg): 2.67 ± 1.15 h
- Tmax ([1]; 100 mg/kg): 4.00 ± 0.00 h

SMILES: O=C(c1cccc(Br)c1)N1CCN(c2ccc3cnccc3c2)CC1 [Compound 3]
- inhibition at 30 µM (human C1s; read-out: human C1s % inhibition at 30 uM, at 30 uM, supplementary csv): 44%

SMILES: Cc1ccc(C(=O)N2CCN(c3ccc4cnccc4c3)CC2)cc1 [Compound 4a, [4-(Isoquinolin-6-yl)piperazin-1-yl](4-methylphenyl)methanone]
- inhibition at 30 µM (human C1s; read-out: human C1s % inhibition at 30 μM): 49%
